Usually ED50 stands for the dose at which the effect has come halfway, by size or by number of responders. Read a low ED50 as an effect at a small dose.

In this test the test system is Dopamine D2 receptor (Rattus norvegicus). Description: Effective dose required for DOPA accumulation (presynaptic dopaminergic effect) in rat.
As for `CCCN1CCC[C@H]2c3cccc(O)c3CC[C@@H]21`, it took a dose of 0.014 µmol/kg to reach the 50% effect level (ED50).
As for `CCCCN1CCC[C@H](c2cccc(O)c2)C1`, the figure is 9.2 µmol/kg.
As for `CCCN1CCC[C@@H]2c3cccc(O)c3CC[C@@H]21`, the figure is 0.32 µmol/kg; as for `CN1CCCC2c3cccc(O)c3CCC21` (racemic), 0.63 µmol/kg.
`CCN1CCCC2c3cccc(O)c3CCC21` (racemic) returned a 50% effective dose (ED50) of 0.17 µmol/kg.
As for `CCCN1CCCC2c3ccc(O)cc3CCC21` (racemic; 17), the figure is 0.54 µmol/kg; as for `Oc1ccc2c(c1)C1CCCNC1CC2` (racemic; 18), 25 µmol/kg.

The values above are taken from ChEMBL document CHEMBL1123557, “N-substituted 1,2,3,4,4a,5,6,10b-octahydrobenzo[f]quinolines and 3-phenylpiperidines: effects on central dopamine and sigma receptors” (J Med Chem, 1987).
